The target in test [1] is human signal recognition particle labeled with tetramethylrhodamine at residue 12 of SRP54 (human) (UniProt P61011). Briefly: FRET or BRET; competition: 2.6 nM RNC(ss)^BDP and 4 nM SRP^TMR at equilibrium, 80S titrated in, with 1 uM NAC; fit to Eq. (7); 25 °C, Assay buffer with 1 mg/mL BSA.
Test [2] concerns the target signal recognition particle (SRP), human, labelled with tetramethylrhodamine (TMR) at residue 12 of SRP54 (human) (UniProt P61011). Nature of the test: other fluorescence titration; competition: 2.6 nM RNC^BDP (RNC(ss)) and 4 nM SRP^TMR at equilibrium, 80S titrated in, with or without NAC; fit to Eq. (7); Assay buffer with 1 mg/mL BSA.
For test [3], the target named is human signal recognition particle labeled with tetramethylrhodamine at residue 12 of SRP54 (human) (UniProt P61011). Nature of the test: FRET or BRET; competition: 2.6 nM RNC(ss)^BDP and 4 nM SRP^TMR at equilibrium, 80S titrated in, no NAC; fit to Eq. (7); 25 °C, Assay buffer with 1 mg/mL BSA. For orientation: BRET reads energy transfer from a luciferase to a nearby fluorophore.

The target in test [4] is ribosome-nascent chain complex bearing the first ~90 amino acids of pPL(ssmt), labelled with BODIPY-FL on the nascent chain (bovine) (UniProt P01239). Briefly: other fluorescence titration; as a20 with unlabeled SRP premixed with RNC^BDP at increasing, up to saturating, concentrations; apparent Kd,NAC.
Test [5] concerns the target ribosome-nascent chain complex bearing the first ~90 amino acids of pPL(ss), labelled with BODIPY-FL on the nascent chain (bovine). The description is as above.
Test [6] has as its target ribosome-nascent chain complex bearing the first ~90 amino acids of pPL(ssmt), labelled with BODIPY-FL on the nascent chain (bovine) (UniProt P01239). Briefly: other fluorescence titration; equilibrium FRET titrations of SRP^TMR into 1 nM RNC^BDP with unlabeled NAC premixed (0-400 nM for RNC(ss), 0-62.5 nM for RNC(ssmt)); global fit to the anti-cooperative co-binding model, Eq. (8); 25 °C, Assay buffer with 1 mg/mL BSA.

Test [7] concerns the target ribosome-nascent chain complex bearing the first ~90 amino acids of pPL(ss), labelled with BODIPY-FL on the nascent chain (bovine). The description is as above.
The target of test [8] is ribosome-nascent chain complex bearing the first ~90 amino acids of pPL(ssmt), labelled with BODIPY-FL on the nascent chain (bovine) (UniProt P01239).

Where only a bound is given, the exact number is not on record here.

As for 80S ribosome (complex), the figures for the Ki in test [1] and in test [3] were 9.5 nM and 19.6 nM, respectively. The Kd in test [2] is 20 nM.

Regarding “human NAC labelled with Cy3B at the engineered single cysteine C57 of NACβ (from UniProt Q13765 1-215; P20290-2 1-162) (complex)”, the results for the fold increase of Kd,NAC at saturating SRP in test [4] and in test [5] were under 2 fold and 6 fold, respectively.

“human nascent polypeptide-associated complex (NAC), unlabeled (from UniProt Q13765 1-215; P20290-2 1-162)”: the KD for SRP-bound RNC (α•Kd,NAC) in test [6] is 3.4 nM; in test [7], 9.2 nM. In addition, in test [8], the apparent rate constant of SRP-SR association (10 nM SRP, 300 nM SR) on 200 nM unlabeled RNC(ssmt) against NAC concentration was over 150 nM.

As usually defined, the Ki is the equilibrium dissociation constant of an inhibitor or competing ligand from its target. Higher therefore signals lower affinity. Usually Kd stands for the free concentration of one partner at which half of the binding sites on the other are occupied at equilibrium, for simple one-to-one binding. Low values mean tighter binding, high ones weaker binding.

The record behind these values is publication PMC7673040.
